Experimental findings from patent US6540999B1, “Immunomodulatory methods using Lewisx oligosacchardies” (President and Fellows of Harvard College, priority 1996, dated 2003) are described below.

Experiment [1] has as its system Granuloma macrophages. Type of experiment: cell-based, C57BL/6 mice.
Experiment [2] concerns Human PBMCs. The experiment can be described thus: Proliferation of human PBMCs from allergic or cancer patients (3H-thymidine uptake). The class given is cell-based. Particulars: 3H-thymidine uptake at 90 hours; LPS 20 μg/ml, HSA and conjugates 100 μg/ml. The source says: Human PBMCs were obtained from: 1) an individual who was allergic to pollen; 2) an individual suffering from lung carcinoma and 3) an individual suffering from colon carcinoma.

Experiment [3] relates to IgE response. The experiment is described as follows: Serum IgE titers after intranasal administration, HSA as antigen. The class given is in vivo. Particulars: mice, FIG. 4B.

human serum albumin [HSA]: in experiment [1], the “IL-10 LEVEL 24 HR” value came to 1247 pg/mL, the “IL-10 LEVEL 48 HR” value is 1214 pg/mL and the “IL-10 LEVEL 72 HR” value is 1089 pg/mL. Also, in experiment [2], the “CPM, COLON CARCINOMA” value was 141 CPM; the “CPM, LUNG CARCINOMA” value is reported as 152 CPM; the “CPM, POLLEN ALLERGIC” value worked out at 460 CPM. In experiment [3], the “HSA-specific IgE production (in words)” value is listed as “virtually no specific IgE production”.
